Test results from ChEMBL document CHEMBL1135889, “Novel 4-anilinoquinazolines with C-7 basic side chains: design and structure activity relationship of a series of potent, orally active, VEGF receptor tyrosine kinase inhibitors” (J Med Chem, 2002).

Sequences of proteins named here, by UniProt entry; tags and fusion partners are left off. A change or cut given only in a name is not applied to a line headed by its entry.
UniProt P00533, whole entry: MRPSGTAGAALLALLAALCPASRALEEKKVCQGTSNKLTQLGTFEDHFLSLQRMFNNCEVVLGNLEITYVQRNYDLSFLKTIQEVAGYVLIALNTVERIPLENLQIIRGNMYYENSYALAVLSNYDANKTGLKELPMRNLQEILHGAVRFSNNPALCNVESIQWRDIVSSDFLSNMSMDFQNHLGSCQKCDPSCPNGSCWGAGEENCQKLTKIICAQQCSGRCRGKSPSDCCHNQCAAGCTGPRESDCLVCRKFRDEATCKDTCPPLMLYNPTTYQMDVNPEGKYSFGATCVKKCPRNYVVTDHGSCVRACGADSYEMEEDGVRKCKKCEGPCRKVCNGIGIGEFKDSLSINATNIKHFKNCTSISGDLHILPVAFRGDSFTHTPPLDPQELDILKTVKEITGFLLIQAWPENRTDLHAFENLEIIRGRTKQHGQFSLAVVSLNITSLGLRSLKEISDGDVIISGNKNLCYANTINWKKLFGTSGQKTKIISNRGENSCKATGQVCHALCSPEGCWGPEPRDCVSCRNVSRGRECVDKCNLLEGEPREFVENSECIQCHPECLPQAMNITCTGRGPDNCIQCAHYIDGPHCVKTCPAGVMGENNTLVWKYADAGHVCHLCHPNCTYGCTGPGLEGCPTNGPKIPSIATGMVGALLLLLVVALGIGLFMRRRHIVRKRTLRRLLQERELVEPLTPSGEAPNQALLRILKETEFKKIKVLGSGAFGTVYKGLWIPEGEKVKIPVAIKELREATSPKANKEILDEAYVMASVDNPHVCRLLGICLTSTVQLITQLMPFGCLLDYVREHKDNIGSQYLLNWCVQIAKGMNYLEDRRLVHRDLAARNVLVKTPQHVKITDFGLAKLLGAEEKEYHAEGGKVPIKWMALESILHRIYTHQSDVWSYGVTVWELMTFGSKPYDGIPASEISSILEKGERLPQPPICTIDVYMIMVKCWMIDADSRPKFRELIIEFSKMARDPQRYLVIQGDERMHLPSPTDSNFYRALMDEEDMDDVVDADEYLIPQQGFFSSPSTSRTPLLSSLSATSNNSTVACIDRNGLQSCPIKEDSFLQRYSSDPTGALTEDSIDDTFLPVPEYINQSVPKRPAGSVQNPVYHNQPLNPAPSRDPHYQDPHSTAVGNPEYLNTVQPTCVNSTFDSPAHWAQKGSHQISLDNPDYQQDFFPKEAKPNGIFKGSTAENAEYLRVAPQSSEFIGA
UniProt P17948, whole entry: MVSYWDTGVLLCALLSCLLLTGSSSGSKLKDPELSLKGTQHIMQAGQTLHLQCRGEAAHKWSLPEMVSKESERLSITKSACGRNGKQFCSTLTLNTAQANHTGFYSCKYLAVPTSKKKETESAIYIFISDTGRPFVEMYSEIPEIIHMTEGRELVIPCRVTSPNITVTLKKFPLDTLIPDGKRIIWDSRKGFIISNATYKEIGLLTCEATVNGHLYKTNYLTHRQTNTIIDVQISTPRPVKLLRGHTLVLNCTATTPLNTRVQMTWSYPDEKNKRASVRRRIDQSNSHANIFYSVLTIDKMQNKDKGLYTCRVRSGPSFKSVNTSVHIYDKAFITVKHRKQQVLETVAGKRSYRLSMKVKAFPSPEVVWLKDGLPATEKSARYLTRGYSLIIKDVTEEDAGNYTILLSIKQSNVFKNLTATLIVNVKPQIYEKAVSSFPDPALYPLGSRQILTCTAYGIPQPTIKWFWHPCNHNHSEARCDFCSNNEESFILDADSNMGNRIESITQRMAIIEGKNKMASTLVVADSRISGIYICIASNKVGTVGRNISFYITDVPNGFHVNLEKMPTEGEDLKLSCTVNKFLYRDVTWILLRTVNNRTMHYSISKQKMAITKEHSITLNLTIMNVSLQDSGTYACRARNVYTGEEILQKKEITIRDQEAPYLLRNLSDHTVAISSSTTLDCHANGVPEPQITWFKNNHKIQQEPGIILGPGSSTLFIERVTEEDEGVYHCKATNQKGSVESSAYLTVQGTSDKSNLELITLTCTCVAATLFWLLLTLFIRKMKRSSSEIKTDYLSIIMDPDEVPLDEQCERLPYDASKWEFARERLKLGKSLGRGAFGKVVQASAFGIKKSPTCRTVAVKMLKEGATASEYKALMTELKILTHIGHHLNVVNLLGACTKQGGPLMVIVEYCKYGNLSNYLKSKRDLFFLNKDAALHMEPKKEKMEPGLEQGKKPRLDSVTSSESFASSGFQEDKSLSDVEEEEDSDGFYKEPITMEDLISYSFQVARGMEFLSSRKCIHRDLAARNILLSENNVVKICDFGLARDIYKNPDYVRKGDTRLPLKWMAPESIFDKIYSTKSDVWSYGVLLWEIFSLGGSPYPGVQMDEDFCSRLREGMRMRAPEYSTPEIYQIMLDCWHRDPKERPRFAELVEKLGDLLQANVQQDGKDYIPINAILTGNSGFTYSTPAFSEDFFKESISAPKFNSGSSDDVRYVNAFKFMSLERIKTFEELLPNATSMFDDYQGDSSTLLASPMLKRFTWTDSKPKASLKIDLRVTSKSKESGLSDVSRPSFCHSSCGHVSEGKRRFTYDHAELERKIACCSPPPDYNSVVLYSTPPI
UniProt P35916: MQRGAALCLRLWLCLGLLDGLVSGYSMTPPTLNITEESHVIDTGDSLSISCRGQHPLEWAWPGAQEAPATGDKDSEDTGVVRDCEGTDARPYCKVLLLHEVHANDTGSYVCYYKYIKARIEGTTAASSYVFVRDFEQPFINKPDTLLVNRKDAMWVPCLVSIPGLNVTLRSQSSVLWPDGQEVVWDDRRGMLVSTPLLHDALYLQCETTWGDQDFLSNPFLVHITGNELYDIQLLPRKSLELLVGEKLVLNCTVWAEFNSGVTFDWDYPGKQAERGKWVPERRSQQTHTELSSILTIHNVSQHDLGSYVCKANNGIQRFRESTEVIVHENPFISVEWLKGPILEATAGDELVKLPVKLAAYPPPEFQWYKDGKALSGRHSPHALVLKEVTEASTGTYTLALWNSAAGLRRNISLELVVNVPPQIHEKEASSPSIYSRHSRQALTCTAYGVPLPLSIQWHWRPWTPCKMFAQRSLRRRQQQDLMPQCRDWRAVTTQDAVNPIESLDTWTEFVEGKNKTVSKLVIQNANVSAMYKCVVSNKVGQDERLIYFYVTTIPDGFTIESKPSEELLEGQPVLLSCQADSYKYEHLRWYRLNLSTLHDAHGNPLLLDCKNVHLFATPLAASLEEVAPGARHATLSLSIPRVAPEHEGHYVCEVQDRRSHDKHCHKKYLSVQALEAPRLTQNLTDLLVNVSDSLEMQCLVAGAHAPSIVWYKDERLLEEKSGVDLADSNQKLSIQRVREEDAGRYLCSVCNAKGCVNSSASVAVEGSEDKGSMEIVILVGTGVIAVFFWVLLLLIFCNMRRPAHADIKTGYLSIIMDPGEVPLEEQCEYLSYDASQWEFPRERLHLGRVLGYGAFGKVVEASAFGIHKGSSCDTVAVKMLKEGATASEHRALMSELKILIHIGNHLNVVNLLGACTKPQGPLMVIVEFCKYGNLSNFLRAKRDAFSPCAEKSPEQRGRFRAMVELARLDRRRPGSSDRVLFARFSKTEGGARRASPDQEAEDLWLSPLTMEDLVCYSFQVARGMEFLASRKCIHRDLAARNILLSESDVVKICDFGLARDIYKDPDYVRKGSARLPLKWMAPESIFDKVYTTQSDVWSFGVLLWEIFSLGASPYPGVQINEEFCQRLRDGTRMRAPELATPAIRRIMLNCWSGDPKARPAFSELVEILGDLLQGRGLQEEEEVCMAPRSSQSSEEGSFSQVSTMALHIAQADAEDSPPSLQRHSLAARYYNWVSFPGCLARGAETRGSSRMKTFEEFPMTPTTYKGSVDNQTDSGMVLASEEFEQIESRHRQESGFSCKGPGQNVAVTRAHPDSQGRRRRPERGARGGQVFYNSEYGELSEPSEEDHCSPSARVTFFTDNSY
UniProt P35968: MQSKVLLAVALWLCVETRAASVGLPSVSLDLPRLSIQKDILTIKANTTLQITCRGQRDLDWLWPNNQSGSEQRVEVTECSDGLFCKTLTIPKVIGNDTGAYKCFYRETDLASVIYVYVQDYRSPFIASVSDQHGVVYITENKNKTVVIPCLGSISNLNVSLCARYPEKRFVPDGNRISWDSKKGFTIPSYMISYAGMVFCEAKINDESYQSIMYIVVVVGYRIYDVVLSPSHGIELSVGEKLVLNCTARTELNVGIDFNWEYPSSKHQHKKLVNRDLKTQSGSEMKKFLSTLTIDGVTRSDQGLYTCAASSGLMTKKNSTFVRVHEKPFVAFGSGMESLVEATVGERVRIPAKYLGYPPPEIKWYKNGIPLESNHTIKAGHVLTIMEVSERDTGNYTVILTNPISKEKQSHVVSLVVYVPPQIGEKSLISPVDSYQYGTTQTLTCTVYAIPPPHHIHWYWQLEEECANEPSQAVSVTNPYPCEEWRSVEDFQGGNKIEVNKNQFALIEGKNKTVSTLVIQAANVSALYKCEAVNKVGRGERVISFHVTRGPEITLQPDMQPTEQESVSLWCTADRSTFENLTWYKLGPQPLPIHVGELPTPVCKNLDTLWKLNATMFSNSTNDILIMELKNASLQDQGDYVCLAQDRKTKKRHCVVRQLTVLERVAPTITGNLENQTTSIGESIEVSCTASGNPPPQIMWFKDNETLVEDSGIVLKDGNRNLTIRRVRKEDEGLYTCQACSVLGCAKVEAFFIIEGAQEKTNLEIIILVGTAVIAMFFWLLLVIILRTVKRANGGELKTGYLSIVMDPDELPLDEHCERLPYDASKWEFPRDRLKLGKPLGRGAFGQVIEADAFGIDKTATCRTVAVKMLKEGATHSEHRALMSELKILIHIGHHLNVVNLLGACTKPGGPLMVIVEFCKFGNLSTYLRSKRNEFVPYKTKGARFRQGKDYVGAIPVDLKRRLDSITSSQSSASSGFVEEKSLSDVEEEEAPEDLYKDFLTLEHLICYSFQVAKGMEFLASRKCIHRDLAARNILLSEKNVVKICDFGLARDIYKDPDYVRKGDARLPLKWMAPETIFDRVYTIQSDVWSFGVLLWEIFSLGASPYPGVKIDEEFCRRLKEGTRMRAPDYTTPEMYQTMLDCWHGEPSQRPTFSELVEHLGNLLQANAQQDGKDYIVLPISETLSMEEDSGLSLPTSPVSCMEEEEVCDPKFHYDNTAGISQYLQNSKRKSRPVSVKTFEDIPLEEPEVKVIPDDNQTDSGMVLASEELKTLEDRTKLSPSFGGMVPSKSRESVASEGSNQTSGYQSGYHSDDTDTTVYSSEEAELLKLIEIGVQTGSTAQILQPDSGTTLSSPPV

Legend:
[1] = biological target: Epidermal growth factor receptor (Homo sapiens, UniProt P00533)
[2] = biological target: Vascular endothelial growth factor receptor 1 (Homo sapiens, UniProt P17948)
[3] = biological target: Vascular endothelial growth factor receptor (Homo sapiens, UniProt P17948+P35916+P35968); details: endothelial cell

Row | IC50 [1] [nM] | IC50 [2] [nM] | IC50 [3] [nM] | SMILES
1 | 100 | – | – | COc1cc2c(Nc3ccc(Br)cc3F)ncnc2cc1OC[C@H]1CCCN(C)C1
2 | 200 | – | – | COc1cc2c(Nc3ccc(Br)cc3F)ncnc2cc1OC[C@@H]1CCCN(C)C1
3 | 200 | 150 | 60 | COc1cc2c(Nc3ccc(Br)cc3F)ncnc2cc1OCCC1CCN(C)CC1
4 | 200 | – | – | COc1cc2c(Nc3ccc(Br)cc3F)ncnc2cc1OCCC1CCNCC1
5 | 100 | – | 50 | COc1cc2c(Nc3ccc(Cl)cc3F)ncnc2cc1OCCCN1CCOCC1
